Source: ChEMBL document CHEMBL1909046, “DrugMatrix in vitro pharmacology data”

Amino acid sequences for entries named in this document (tags omitted). A change or cut given only in a name is not applied to a line headed by its entry.
UniProt P41145: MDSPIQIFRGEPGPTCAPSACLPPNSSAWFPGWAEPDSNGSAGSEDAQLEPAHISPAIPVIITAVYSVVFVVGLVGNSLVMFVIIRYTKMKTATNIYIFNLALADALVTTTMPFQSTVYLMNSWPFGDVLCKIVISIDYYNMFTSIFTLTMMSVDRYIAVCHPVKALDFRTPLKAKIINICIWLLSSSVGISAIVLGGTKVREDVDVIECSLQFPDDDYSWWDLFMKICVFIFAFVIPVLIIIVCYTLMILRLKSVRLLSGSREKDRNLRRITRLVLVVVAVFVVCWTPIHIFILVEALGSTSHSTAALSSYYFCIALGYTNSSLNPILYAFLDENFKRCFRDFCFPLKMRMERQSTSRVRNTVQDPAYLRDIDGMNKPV
UniProt P35372, whole entry, looked up: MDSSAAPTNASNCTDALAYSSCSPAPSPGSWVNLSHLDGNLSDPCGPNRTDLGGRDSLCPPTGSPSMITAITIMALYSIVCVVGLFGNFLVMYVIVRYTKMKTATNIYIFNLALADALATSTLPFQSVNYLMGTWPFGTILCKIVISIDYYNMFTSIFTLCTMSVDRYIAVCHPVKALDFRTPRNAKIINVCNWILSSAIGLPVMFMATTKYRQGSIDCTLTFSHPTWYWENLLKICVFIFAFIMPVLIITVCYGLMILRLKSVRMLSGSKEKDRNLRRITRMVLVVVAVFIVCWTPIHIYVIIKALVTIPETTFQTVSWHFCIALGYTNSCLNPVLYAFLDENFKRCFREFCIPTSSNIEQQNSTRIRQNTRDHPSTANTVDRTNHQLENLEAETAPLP

Tests used:
[1] = biological target: Kappa-type opioid receptor (Homo sapiens, UniProt P41145); test: DRUGMATRIX: Opiate kappa (OP2, KOP) radioligand binding (ligand: [3H] Diprenorphine); settings: hek293
[2] = biological target: Mu-type opioid receptor (Homo sapiens, UniProt P35372); test: DRUGMATRIX: Opiate mu (OP3, MOP) radioligand binding (ligand: [3H] Diprenorphine); settings: cho-k1

C=C(C)[C@@H]1[C@H]2OC(=O)[C@@H]1[C@]1(O)C[C@H]3O[C@]34C(=O)O[C@H]2[C@]14C
Not Active: IC50 [1] | Ki [1] | IC50 [2] | Ki [2]

Cc1ccc2cc3c(ccc4ccccc43)c3c2c1CC3
Not Active: IC50 [1] | Ki [1] | IC50 [2] | Ki [2]

CC(Cl)(Cl)Cl
Not Active: IC50 [1] | Ki [1] | IC50 [2] | Ki [2]

COc1cc([C@@H]2c3cc4c(cc3[C@H](O)[C@H]3COC(=O)[C@H]23)OCO4)cc(OC)c1OC
Not Active: IC50 [1] | Ki [1] | IC50 [2] | Ki [2]

CN1C[C@H](C(=O)N[C@]2(C)O[C@@]3(O)[C@@H]4CCCN4C(=O)[C@H](Cc4ccccc4)N3C2=O)C=C2c3cccc4[nH]cc(c34)C[C@H]21
Not Active: IC50 [1] | Ki [1] | IC50 [2] | Ki [2]

C[C@@H](CO)NC(=O)[C@@H]1C=C2c3cccc4[nH]cc(c34)C[C@H]2N(C)C1 [ERGONOVINE]
Not Active: IC50 [1] | Ki [1] | IC50 [2] | Ki [2]

CCCCCCCCCc1ccc(O)cc1
Not Active: IC50 [1] | Ki [1] | IC50 [2] | Ki [2]

C[N+]1(C)[C@@H]2C[C@@H](OC(=O)[C@H](CO)c3ccccc3)C[C@H]1[C@@H]1O[C@@H]12.[Br-]
Not Active: IC50 [1] | Ki [1]

NNCCc1ccccc1
Not Active: IC50 [1] | Ki [1]

ClC1=C(Cl)[C@]2(Cl)[C@@H]3[C@@H]4C[C@@H]([C@H]5O[C@@H]45)[C@@H]3[C@@]1(Cl)C2(Cl)Cl
Not Active: IC50 [1] | Ki [1] | IC50 [2] | Ki [2]
